Reference: ChEMBL document CHEMBL1134157, “General synthesis of alpha-substituted 3-bisaryloxy propionic acid derivatives as specific MMP inhibitors” (Bioorg Med Chem Lett, 2001)

Target: T1, Interstitial collagenase (Homo sapiens, UniProt P03956)
T1 sequence (P03956 whole entry): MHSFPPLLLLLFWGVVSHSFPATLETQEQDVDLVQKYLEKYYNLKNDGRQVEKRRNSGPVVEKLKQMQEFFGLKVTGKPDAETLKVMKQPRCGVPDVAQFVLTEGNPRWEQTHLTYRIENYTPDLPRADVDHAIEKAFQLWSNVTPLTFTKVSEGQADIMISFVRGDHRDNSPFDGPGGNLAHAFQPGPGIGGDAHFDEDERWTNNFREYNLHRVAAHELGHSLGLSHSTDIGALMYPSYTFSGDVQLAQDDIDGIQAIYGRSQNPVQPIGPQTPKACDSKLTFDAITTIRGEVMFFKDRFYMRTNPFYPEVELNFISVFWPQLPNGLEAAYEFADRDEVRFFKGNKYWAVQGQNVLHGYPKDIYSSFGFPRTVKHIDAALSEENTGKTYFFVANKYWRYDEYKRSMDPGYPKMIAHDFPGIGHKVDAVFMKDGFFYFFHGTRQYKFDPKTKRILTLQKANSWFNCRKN
Experiment: Inhibition of Matrix metalloprotease-1

O=C(NO)C(CCn1c(=O)[nH]c2ccccc2c1=O)COc1ccc(-c2ccccc2)cc1 (configuration not stated)
IC50: 2.85 µM

O=C(NO)C(CCn1nnc2ccccc2c1=O)COCCc1ccc(-c2ccc(Cl)cc2)cc1 (configuration not stated)
IC50: 9.5 µM
